Among the data in ChEMBL document CHEMBL1154321, “Benzoxazole piperidines as selective and potent somatostatin receptor subtype 5 antagonists” (Bioorg Med Chem Lett, 2009) are Ki values, retold here.

Amino acid sequences for entries named in this document (tags omitted).
UniProt P31391, whole entry: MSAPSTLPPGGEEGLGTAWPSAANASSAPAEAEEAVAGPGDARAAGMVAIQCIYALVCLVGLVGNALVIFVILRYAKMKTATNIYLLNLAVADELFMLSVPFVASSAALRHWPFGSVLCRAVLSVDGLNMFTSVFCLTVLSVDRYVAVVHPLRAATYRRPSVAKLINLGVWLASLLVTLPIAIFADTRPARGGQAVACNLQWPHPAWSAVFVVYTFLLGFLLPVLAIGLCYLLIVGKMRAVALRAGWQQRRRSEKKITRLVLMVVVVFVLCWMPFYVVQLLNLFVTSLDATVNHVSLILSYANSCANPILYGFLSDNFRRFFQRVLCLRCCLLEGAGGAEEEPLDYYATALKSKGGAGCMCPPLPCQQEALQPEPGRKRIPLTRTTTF
UniProt P35346, whole entry: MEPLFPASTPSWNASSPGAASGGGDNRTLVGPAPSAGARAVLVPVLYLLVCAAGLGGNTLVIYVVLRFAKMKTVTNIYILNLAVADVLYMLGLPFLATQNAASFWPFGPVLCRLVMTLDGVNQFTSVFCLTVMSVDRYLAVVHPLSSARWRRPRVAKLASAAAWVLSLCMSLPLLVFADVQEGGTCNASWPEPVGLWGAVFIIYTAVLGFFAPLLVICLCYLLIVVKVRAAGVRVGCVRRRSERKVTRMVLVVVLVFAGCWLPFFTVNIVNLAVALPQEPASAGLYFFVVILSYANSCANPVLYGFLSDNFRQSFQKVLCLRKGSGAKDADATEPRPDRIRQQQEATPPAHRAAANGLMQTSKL
UniProt P30874, whole entry: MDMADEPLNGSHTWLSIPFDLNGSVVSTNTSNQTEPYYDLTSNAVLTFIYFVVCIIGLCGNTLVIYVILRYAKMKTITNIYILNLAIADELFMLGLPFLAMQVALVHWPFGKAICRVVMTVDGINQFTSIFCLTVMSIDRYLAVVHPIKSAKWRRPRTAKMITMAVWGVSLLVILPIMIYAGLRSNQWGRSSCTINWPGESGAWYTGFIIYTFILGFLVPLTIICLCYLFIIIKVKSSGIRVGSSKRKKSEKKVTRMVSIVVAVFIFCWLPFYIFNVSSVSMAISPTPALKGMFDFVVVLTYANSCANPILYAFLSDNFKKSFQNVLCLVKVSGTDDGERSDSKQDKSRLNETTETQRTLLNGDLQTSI
UniProt P32745, whole entry: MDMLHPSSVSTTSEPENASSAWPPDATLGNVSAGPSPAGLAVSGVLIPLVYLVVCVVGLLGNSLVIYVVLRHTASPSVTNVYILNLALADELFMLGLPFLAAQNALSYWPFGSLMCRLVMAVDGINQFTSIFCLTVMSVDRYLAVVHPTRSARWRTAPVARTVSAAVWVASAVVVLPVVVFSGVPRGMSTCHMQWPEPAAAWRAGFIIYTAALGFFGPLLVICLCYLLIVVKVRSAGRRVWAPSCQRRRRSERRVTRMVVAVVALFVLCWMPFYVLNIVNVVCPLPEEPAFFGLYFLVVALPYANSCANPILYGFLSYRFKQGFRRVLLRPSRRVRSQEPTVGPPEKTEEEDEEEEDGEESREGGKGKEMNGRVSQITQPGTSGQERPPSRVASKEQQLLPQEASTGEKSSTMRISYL

What is called pKi is the negative decadic logarithm of the Ki, by convention in mol/L.

Assay [1] addresses Somatostatin receptor type 4 (Homo sapiens, UniProt P31391). The experiment in a line: Displacement of SST14 from human recombinant SST4 receptor. Summed up:
(§1)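 Membranes prepared by sonication from cells expressing the SST receptor subtype, incubated with radiolabeled 11-Tyr SST-14 tracer and test compound at varying concentrations; non-labeled SST-14 defined non-specific binding. Incubation stopped by glass-fiber filtration, bound radioactivity counted; IC50 for half-maximal binding inhibition estimated and Ki derived.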

Assay [2] deals with Somatostatin receptor type 5 (Homo sapiens, UniProt P35346). The assay can be described thus: Displacement of SST14 from human recombinant SST5 receptor expressed in CHO cells by radioligand binding assay.
For assay [3], the target named is Somatostatin receptor type 2 (Homo sapiens, UniProt P30874). The experiment in a line: Displacement of SST14 from human recombinant SST2 receptor. Summed up: as §1
In assay [4] the target is Somatostatin receptor type 3 (Homo sapiens, UniProt P32745). The experiment in a line: Displacement of SST14 from human recombinant SST3 receptor. In outline: as §1

pKi: −log10 of the molar value. Only a part of the results on these compounds is given; other tests are left out.

As for `CCOc1cc(NC2CCN(Cc3nc4ccccc4s3)CC2)ccc1OC`, the pKi in assay [1] is under 5.00; in assay [2], under 6.00; in assay [3] it was under 5.00; in assay [4], under 5.00.
